These results are taken from ChEMBL document CHEMBL5030540 (J Med Chem, 2021).

Chains of the proteins cited; added tags and fusions are not shown.
UniProt P42866, whole entry: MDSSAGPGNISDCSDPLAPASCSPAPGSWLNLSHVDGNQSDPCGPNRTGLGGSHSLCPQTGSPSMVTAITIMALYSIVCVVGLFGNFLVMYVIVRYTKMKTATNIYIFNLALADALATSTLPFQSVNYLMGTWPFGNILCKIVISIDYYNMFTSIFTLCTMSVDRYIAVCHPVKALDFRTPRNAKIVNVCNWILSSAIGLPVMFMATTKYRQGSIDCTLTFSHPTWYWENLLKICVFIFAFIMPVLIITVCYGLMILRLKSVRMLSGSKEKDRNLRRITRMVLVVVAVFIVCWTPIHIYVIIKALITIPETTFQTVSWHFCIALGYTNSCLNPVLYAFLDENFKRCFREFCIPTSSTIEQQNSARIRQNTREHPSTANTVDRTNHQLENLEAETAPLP

As usually defined, the Emax is the greatest response seen or fitted, relative to the assay's reference.

The assay concerns the target Mu-type opioid receptor (Mus musculus) (UniProt P42866). The experiment in a line: Partial agonist activity at mouse MOR expressed in HEK293T cells assessed as Nb33 recruitment by BRET assay relative to control. Type of assay: functional, cell-based. To be noted: filed as partial agonist.

`CN1CC[C@]23c4c5ccc(O)c4O[C@H]2[C@@H](O)C=C[C@H]3[C@H]1C5` [MORPHINE]: the maximal response (Emax) is 71%.
